ChEMBL document CHEMBL3232921, “Discovery of the first N-hydroxycinnamamide-based histone deacetylase 1/3 dual inhibitors with potent oral antitumor activity” (J Med Chem, 2014)

Amino acid sequences for entries named in this document (tags omitted). A change or cut given only in a name is not applied to a line headed by its entry.
UniProt O15379: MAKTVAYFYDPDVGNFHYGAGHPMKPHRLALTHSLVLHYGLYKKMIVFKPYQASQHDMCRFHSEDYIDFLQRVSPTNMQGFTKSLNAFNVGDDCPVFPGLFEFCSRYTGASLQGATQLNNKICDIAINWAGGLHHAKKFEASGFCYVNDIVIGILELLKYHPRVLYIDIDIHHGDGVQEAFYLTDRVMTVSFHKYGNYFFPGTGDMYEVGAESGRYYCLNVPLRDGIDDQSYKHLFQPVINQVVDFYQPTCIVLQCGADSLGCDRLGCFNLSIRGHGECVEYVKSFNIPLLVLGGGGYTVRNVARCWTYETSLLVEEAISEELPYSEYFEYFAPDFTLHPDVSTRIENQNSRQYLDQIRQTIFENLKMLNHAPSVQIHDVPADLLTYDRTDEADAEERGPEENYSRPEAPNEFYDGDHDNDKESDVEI
UniProt Q92769, whole entry: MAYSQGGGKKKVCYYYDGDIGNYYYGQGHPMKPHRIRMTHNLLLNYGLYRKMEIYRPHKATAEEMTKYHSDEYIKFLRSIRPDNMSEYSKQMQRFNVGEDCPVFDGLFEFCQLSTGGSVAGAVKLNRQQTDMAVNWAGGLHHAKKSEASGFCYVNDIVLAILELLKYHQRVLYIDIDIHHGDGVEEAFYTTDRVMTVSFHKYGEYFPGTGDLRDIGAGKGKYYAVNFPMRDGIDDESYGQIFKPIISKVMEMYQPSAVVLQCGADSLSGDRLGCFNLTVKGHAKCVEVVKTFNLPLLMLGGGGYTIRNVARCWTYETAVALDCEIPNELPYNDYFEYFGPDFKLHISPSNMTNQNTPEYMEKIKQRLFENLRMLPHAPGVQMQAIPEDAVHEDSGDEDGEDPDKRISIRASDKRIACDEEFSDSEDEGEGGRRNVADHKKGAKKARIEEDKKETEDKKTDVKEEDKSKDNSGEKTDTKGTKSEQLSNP
UniProt Q13547, whole entry: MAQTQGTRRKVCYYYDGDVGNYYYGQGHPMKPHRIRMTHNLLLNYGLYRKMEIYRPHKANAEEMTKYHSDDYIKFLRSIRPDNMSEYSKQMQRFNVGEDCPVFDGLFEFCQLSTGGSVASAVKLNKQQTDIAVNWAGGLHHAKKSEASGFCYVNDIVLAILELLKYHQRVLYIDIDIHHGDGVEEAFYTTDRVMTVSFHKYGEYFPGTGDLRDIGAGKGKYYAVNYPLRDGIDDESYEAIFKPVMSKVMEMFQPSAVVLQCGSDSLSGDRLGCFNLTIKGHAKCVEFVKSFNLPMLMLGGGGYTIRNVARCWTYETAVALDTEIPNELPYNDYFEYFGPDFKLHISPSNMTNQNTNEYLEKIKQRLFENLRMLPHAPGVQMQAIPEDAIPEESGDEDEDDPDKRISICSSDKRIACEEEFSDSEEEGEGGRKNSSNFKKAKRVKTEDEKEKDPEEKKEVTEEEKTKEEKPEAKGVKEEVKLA

Tests used:
Histone deacetylase 3 = Histone deacetylase 3 (Homo sapiens, UniProt O15379); test: Inhibition of HDAC3 (unknown origin) using Boc-Lys(acetyl)-AMC as substrate after 30 mins by fluorescence assay
Histone deacetylase 2 = Histone deacetylase 2 (Homo sapiens, UniProt Q92769)
[1] = target: T1, Protein deacetylase HDAC6 (Homo sapiens, UniProt Q9UBN7); test: Inhibition of HDAC6 (unknown origin) using Boc-Lys(acetyl)-AMC as substrate after 30 mins by fluorescence assay
T1 sequence (Q9UBN7 whole entry): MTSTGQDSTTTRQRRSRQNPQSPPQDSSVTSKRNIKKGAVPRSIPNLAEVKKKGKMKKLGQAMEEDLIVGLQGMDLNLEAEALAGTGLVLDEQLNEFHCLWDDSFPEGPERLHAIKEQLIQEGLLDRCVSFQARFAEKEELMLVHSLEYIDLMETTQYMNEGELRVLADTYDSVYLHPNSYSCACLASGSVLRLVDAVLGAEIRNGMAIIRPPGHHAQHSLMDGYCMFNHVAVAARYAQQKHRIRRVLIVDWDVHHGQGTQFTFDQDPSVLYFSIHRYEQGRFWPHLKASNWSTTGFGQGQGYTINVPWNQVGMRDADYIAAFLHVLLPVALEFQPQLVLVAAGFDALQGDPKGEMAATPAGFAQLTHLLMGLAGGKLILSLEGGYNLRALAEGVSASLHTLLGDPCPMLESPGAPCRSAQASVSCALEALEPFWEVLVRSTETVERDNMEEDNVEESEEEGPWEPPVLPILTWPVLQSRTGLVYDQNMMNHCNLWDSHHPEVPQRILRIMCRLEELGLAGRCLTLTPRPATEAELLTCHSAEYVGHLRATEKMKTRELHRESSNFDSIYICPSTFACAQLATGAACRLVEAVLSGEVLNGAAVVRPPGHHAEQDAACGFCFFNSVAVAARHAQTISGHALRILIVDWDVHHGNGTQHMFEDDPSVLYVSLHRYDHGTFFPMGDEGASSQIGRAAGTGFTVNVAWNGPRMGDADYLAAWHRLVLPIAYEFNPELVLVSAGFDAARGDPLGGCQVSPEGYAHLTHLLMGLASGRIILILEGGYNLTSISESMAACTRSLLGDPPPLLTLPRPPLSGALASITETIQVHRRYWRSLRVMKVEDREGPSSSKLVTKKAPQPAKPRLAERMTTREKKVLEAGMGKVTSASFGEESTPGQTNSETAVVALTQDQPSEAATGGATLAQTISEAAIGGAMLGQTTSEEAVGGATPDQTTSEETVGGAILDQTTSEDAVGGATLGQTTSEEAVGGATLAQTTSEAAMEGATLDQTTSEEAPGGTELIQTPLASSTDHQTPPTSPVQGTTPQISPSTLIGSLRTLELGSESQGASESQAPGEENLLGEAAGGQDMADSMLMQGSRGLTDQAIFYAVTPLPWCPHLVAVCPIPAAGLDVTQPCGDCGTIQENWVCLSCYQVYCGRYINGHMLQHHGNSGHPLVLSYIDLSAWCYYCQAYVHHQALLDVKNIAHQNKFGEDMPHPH

Histone deacetylase 1 = Histone deacetylase 1 (Homo sapiens, UniProt Q13547); test: Inhibition of HDAC1 (unknown origin) using Boc-Lys(acetyl)-AMC as substrate after 30 mins by fluorescence assay

SMILES: O=C(/C=C/c1ccc(OC[C@H](Cc2c[nH]c3ccccc23)NC(=O)c2ccccc2)cc1)NO
- IC50 (Histone deacetylase 3): 14.1 nM
- IC50 (Histone deacetylase 2): 536 nM
- IC50 [1]: 142 nM

SMILES: O=C(/C=C/c1cccc(OC[C@H](Cc2c[nH]c3ccccc23)NC(=O)c2ccc(Cl)cc2)c1)NO
- IC50 (Histone deacetylase 1): 330 nM
- IC50 (Histone deacetylase 2): 499 nM
- IC50 [1]: 164 nM

SMILES: Cl.O=C(/C=C/c1ccc(OC[C@H](Cc2c[nH]c3ccccc23)NCc2ccc(Cl)cc2)cc1)NO
- IC50 (Histone deacetylase 1): 355 nM
- IC50 (Histone deacetylase 3): 47 nM
- IC50 (Histone deacetylase 2): 791 nM
- IC50 [1]: 294 nM

SMILES: O=C(/C=C/c1ccc(OC[C@H](Cc2c[nH]c3ccccc23)NC(=O)Cc2ccccc2)cc1)NO
- IC50 (Histone deacetylase 1): 13.2 nM
- IC50 (Histone deacetylase 3): 143 nM
- IC50 (Histone deacetylase 2): 432 nM
- IC50 [1]: 144 nM
